Assay results as given in patent publication US20220023389A1, “VASODILATORS FOR USE IN THE TREATMENT OF A RETINAL ISCHEMIC DISORDER” (University of Copenhagen, priority 2018, published 2022).

What was measured:
ciliary artery = assay: Ciliary artery diameter by fundus imaging, ET-1 induced retinal ischemia; format: in vivo, Sprague dawley rat
Method: (§1) Rats were anesthetized with 90 mg/kg ketamine & 10 mg/kg xylazine (i.p). Oxybuprocain 0.4% Anesthetic was applied topically to the eyes.
(§2) Guided under a stereoscopic microscope to avoid lens and retinal injury, 5 μl intravitreal injection of 500 uM ET-1 (Phoenix Pharmaceuticals, Inc.) was performed using a digital controller and UltraMicroPump III, with NanoFil 10 μl syringe (WPI) connected to intraoucular injector with a 34 g bevelled needle.
(§3) Injection was performed through the sclera, inserted approximately 1 mm posterior to the corneal limbus at a 45° angle to avoid contact with the lens capsule and direct the contents, 1.5 mm into the vitreous chamber, in the right eye (FIG. 1). The needle remained in the vitreous cavity for 30 seconds after injection and was then gently withdrawn. A cotton swab was then placed on the injection site to prevent withdrawal of injected solution, and the eye ball was gently massaged to help with the distribution of compound through the vitreous. Antibiotic ointment was applied in the conjunctival sac after the intravitreal injections. The contralateral eye was used as the control eye.
Fundus imaging was performed to document any changes to the retina or vasculature. Animals recover on the heating plate and returned to the stables once awake and resuming normal behavior. The rats are tested according to the following schedule.
(§4) Day 0—ET-1 is administered intravitreally alone or in combination with the current invention. Fundus is recorded before and after injection. Day 3—Animals are anesthetized to perform ERG Measures Day 21—Animals are anesthetized to perform ERG Measures
(§5) Treatment Regimes • A) intravitreal 5 μl PBS (vehicle) 10 min before ET-1 • B) intravitreal 5 μl CGRP (200 μM) 10 min before ET-1 • C) intravitreal 5 μl SNP (500 μM) 10 min before ET-1 • D) topical application 10 μl CGRP (200 μM) before ET-1

[1] = tested on: retina (photoreceptors, bipolar cells); format: in vivo, Sprague dawley rat
Method: as §1, §2, §3, §4, §5
After overnight dark adaptation for at least 12 hours, the animals were anesthetized with 90 mg/kg ketamine and 10 mg/kg xylazine delivered by a single intraperitoneal injection. Then, oxybuprocaine anesthetic was applied topically to the eyes and the pupils dilated with Mydriacyl and Metaoxedrin under dim red-light illumination. The body temperature was maintained with a heating pad set to 37° C. Using a Ganzfeld stimulator, white light flashes (0.0002-100 cd-s/m2) were produced under scotopic conditions. ERGs were recorded from both eyes simultaneously with a gold wire electrode loops, placed on the corneal apex, with a drop of saline applied to the corneal surface for hydration during the testing procedure. A reference electrode was placed in the mouth and a ground electrode inserted sub dermally in the tail of the animal. The scotopic A-wave amplitude and B-wave amplitude were recorded and evaluated.

[2] = microvascular vasodilator; cited from earlier work
[3] = in vivo; cited from earlier work
[4] = day 21, applied intravitreally 10 min before ET-1 (5 μL 500 μM)
[5] = day 21, applied topically (10 μL 200 μM) before intravitreal ET-1

In the case of Calcitonin gene-related peptide [CGRP], the “ciliary artery diameter, increase from baseline” value (ciliary artery; applied intravitreally (CGRP 5 μL 200 μM; SNP 5 μL 500 μM), before the injection of ET-1) is reported as 61±12%, the “dilation of the ciliary artery” value (ciliary artery; applied topically to the eye of a Sprague dawley rat, FIG. 5) is reported as “more than 20%” and the “ciliary artery diameter above baseline after applying ET-1” value (ciliary artery; eye pretreated intravitreally 10 min before intravitreal ET-1 (5 μL 500 μM)) is reported as 9±15%. The “ciliary artery diameter, increase from baseline” value (ciliary artery; topical 10 μL 200 μM, visualized after the injection of intravitreal ET-1) was 102±21%, the “effect on retinal function / protection against ET-1 induced ischemia” value ([1]; ERG after ET-1 induced ischemia) was “strong protective effect” and the B-wave amplitude [1, 4] was 1181±202 μV. For the same substance, the “average A-wave amplitude” value [1, 4] was 545±45 μV, the B-wave amplitude [1, 5] was 1088±411 μV and the “average A-wave amplitude” value [1, 5] was 511±100 μV. The observable side effects ([1]; rat, in vivo) was “without observable side effects”, the “vasodilator potency relative to other vasodilators such as ACh (greater)” value [2] was 10-100 times and the “vasodilator potency relative to the most potent prostaglandins (higher)” value [2] was ~10 fold. The half-life [3] was “less than 30 minutes”.

Read-outs that look alike come from different tables or passages of the source.
